Common to all, as to assay: NCI tumour cell line growth inhibition, 48 h
The test system of assay [1] is SW-620.
For assay [2], the system named is TK-10.
For assay [3], the system named is U-251.
For assay [4], the system named is UACC-257.
Assay [5] concerns UACC-62.
The subject of assay [6] is UO-31.
Assay [7] concerns T47D.
Assay [8] relates to XF498.

The structures appear in SMILES notation. The list shows a part of the results. Rule as the data show it: active = GI50 up to about 1.1 µM and inactive = higher. These assays gave more results; the selection is not random.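 Test compounds were applied to cells in 96-well plates for 48 hours at 5 doses. Here, GI50 denotes the concentration required for 50% inhibition of growth.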 For some assays here: Potency and affinity values are given separately.

In the case of `O[C@H]1[C@@H](O)CC2CCN3Cc4cc5c(cc4[C@H]1C23)OCO5` (some centres undefined), the GI50 in assay [1], in assay [2], in assay [3], in assay [4], in assay [5] and in assay [6] was inactive: > 100 µM each time.

On to `Cc1ccc2ccc(C)c(C)c2c1.O=[N+]([O-])c1cc([N+](=O)[O-])c(O)c([N+](=O)[O-])c1O`, for which the GI50 in assay [1], in assay [7], in assay [2], in assay [3], in assay [4] and in assay [5] was inactive: > 100 µM throughout. In assay [6], the GI50 is inactive: > 100 µM.

With `O=c1[nH]c2c(N/N=C/c3ccc([N+](=O)[O-])o3)c([N+](=O)[O-])c(N/N=C/c3ccc([N+](=O)[O-])o3)c([N+](=O)[O-])c2[nH]1`, in assay [1], the GI50 was inactive: 2.18 µM.

In the case of `Cc1[nH]c2c(C)c([N+](=O)[O-])c(C)c([N+](=O)[O-])c2c1[N+](=O)[O-]`, the GI50 is inactive: 13.7 µM in assay [1]; inactive: 9.64 µM in assay [2]; inactive: 5.7 µM in assay [3]; inactive: 5.81 µM in assay [4]; inactive: 3.21 µM in assay [5]; inactive: 6.52 µM in assay [6]. In assay [8], the GI50 was inactive: 2.25 µM.

Regarding `COc1ccc2nccc(C=O)c2c1`, the GI50 in assay [1] was active: 0.245 µM; in assay [7] it was active: 0.0993 µM; in assay [2], inactive: 32.1 µM; in assay [3] it was active: 0.364 µM; in assay [4] it was inactive: 9.91 µM; in assay [5] it was inactive: 11 µM. The GI50 in assay [6] was inactive: 28.5 µM.

As for `Cc1ccc([N+](=O)[O-])c(C[N+](C)(CCCl)CCCl)c1`, the GI50 was inactive: 14.9 µM in assay [1]; inactive: 11.9 µM in assay [7]; inactive: 33.8 µM in assay [2]; inactive: 16.8 µM in assay [3]; inactive: 15.6 µM in assay [4]; inactive: 12.6 µM in assay [5]. Besides, the GI50 in assay [6] was inactive: 22.4 µM.

As for `ClCCSc1c2ccccc2nc2ccccc12`, the GI50 in assay [1] was inactive: 3.9 µM; in assay [7] it was inactive: 2.72 µM; in assay [2] it was inactive: 6.7 µM; in assay [3] it was inactive: 16.7 µM; in assay [4] it was inactive: 8.18 µM; in assay [5] it was inactive: 16.9 µM. The GI50 in assay [6] was inactive: 13 µM.

In the case of `O=[N+]([O-])C1([N+](=O)[O-])COCOC1`, the GI50 is inactive: > 100 µM in assay [1]; inactive: 44.1 µM in assay [7]; inactive: > 100 µM in assay [2]; inactive: > 100 µM in assay [3]; inactive: 65.9 µM in assay [4]; inactive: 82 µM in assay [5]. Moreover, the GI50 in assay [6] was inactive: > 100 µM.

As for `O=[As](O)(O)O`, the GI50 in assay [1], in assay [7], in assay [2], in assay [3], in assay [4] and in assay [5] was inactive: > 100 µM throughout. Also, the GI50 in assay [6] is inactive: > 100 µM.

Regarding `CCCCCCCCCCCCCNCC(C)O` (centres undefined), the GI50 in assay [1] is inactive: 15.6 µM; in assay [7], inactive: 17.9 µM; in assay [2], inactive: 7.18 µM; in assay [3] it was inactive: 13.1 µM; in assay [4], inactive: 7.24 µM; in assay [5], inactive: 13.9 µM. Also, in assay [6], the GI50 is inactive: 10.9 µM.

As to `Cc1ccc2ccc3ccc4ccccc4c3c2c1.O=C1c2cc([N+](=O)[O-])ccc2-c2c1cc([N+](=O)[O-])cc2[N+](=O)[O-]`, the GI50 was inactive: 1.23 µM in assay [1]; active: 1.07 µM in assay [7]; inactive: 7.74 µM in assay [2]; inactive: 2.1 µM in assay [3]; inactive: 7.41 µM in assay [4]; active: 0.966 µM in assay [5]. Besides, the GI50 in assay [6] is inactive: 1.4 µM.

As to `COc1ccc(C[N+](C)(CCCl)CCCl)c([N+](=O)[O-])c1`, the GI50 was inactive: > 100 µM in assay [1]; inactive: 90.8 µM in assay [7]; inactive: > 100 µM in assay [2]; inactive: > 100 µM in assay [3]; inactive: > 100 µM in assay [4]; inactive: > 100 µM in assay [5]. In assay [6], the GI50 was inactive: > 100 µM.

For `NNc1nc2nonc2nc1NN`, the GI50 is inactive: 39.4 µM in assay [1]; inactive: 20.2 µM in assay [7]; inactive: > 100 µM in assay [2]; inactive: 40.6 µM in assay [3]; inactive: 37.2 µM in assay [4]; inactive: 55 µM in assay [5]. Also, in assay [6], the GI50 was inactive: 40.4 µM.

Regarding `O[C@@H]1CCN2CCC[C@H]12`, the GI50 in assay [1], in assay [7], in assay [2], in assay [3], in assay [4] and in assay [5] was inactive: > 100 µM each time. The GI50 in assay [6] is inactive: 59 µM.

Regarding `O=[N+]([O-])C1([N+](=O)[O-])CCCc2nonc21`, the GI50 in assay [1] was inactive: 35.1 µM; in assay [7], inactive: 21 µM; in assay [2] it was inactive: > 100 µM; in assay [3] it was inactive: > 100 µM; in assay [5], inactive: 39.1 µM; in assay [6], inactive: 21.4 µM.

For `COP(C)(=O)C(N)Cc1ccccc1` (centres undefined), the GI50 in assay [1] was inactive: > 100 µM; in assay [7], inactive: > 100 µM; in assay [2] it was inactive: > 100 µM; in assay [3] it was inactive: > 100 µM; in assay [4] it was inactive: 97.3 µM; in assay [5] it was inactive: > 100 µM. The GI50 in assay [6] was inactive: > 100 µM.

Consider `C[S+](N)(=O)CCC(N)P(=O)(O)O` (centres undefined), for which the GI50 in assay [1], in assay [7], in assay [2], in assay [3], in assay [4] and in assay [6] was inactive: > 100 µM throughout.

`Nc1nc2c(ncn2CCN(CCCl)CCCl)c(=O)[nH]1`: the GI50 in assay [1], in assay [2], in assay [3], in assay [4], in assay [5] and in assay [6] was inactive: > 100 µM in each case.

Consider `COc1ccc([N+](=O)[O-])c(C[N+](C)(CCCl)CCCl)c1`, for which the GI50 in assay [1] is inactive: > 100 µM; in assay [7], inactive: 52.6 µM; in assay [2], inactive: > 100 µM; in assay [3] it was inactive: > 100 µM; in assay [4], inactive: > 100 µM; in assay [5] it was inactive: > 100 µM. For the same molecule, the GI50 in assay [6] is inactive: > 100 µM.

As for `O=[N+]([O-])c1ncn(F)c1[N+](=O)[O-]`, the GI50 in assay [1], in assay [2], in assay [3], in assay [4], in assay [5] and in assay [6] was inactive: > 100 µM throughout.

Take `O=C1CCN2CCCC12` (centres undefined): the GI50 is inactive: > 100 µM in assay [1]; inactive: > 100 µM in assay [7]; inactive: > 100 µM in assay [2]; inactive: > 100 µM in assay [3]; inactive: 80 µM in assay [4]; inactive: > 100 µM in assay [5]. In assay [6], the GI50 was inactive: 43.2 µM.

`CCCC[S+](N)(=O)CCC(N)P(=O)(O)O` (centres undefined): the GI50 in assay [1], in assay [7], in assay [2], in assay [3], in assay [4] and in assay [6] was inactive: > 100 µM each time.

Turning to `O=C1Nc2ccc([N+](=O)[O-])cc2/C1=N/Nc1ccc([N+](=O)[O-])cc1[N+](=O)[O-]`, the GI50 in assay [1] is inactive: 21.7 µM; in assay [2], inactive: 17.8 µM; in assay [3], inactive: 11.9 µM; in assay [4], inactive: 26.1 µM; in assay [5], inactive: 32.6 µM; in assay [6] it was inactive: 44.4 µM. The GI50 in assay [8] was inactive: 18.9 µM.

These data come from ChEMBL document CHEMBL1201862, “PubChem BioAssay data set” (2004).
